Experimental data from patent US12448425B2, “Therapeutic peptides” (Board of Regents, The University of Texas System, priority 2019, dated 2025).

Target: T1, EphB4 (Homo sapiens, UniProt P54760)
T1 construct: purchased R&D Systems
T1 sequence (P54760 16-987): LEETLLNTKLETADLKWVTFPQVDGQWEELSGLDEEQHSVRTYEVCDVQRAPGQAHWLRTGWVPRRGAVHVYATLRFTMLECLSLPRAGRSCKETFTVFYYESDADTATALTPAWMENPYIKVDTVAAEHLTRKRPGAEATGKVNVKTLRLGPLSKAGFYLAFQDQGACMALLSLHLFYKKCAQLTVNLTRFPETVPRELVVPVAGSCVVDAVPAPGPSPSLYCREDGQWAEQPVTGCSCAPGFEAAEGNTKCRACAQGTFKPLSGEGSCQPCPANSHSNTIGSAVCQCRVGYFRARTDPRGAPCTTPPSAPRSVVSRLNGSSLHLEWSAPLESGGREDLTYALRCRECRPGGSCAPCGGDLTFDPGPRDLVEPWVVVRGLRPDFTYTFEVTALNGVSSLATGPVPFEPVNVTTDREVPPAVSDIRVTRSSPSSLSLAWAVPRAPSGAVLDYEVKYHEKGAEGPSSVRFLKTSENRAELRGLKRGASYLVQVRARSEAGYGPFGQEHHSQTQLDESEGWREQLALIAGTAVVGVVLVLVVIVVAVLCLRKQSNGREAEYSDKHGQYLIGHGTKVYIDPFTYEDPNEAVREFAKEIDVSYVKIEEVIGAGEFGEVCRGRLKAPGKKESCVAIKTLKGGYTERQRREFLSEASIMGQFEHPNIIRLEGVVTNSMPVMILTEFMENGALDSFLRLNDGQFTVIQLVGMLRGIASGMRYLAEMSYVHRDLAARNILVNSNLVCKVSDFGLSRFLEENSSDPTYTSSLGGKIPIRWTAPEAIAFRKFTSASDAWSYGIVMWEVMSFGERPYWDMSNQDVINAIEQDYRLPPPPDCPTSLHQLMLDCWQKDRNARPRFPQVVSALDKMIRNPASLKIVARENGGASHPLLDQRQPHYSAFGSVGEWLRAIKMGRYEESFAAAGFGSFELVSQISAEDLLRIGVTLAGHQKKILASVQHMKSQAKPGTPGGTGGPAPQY
Assay: SPR binding of peptides to immobilized EphB4
Settings: SPR sensorgrams
Description: Surface plasmon resonance (SPR) binding and competition assays. A stock solution of EphB4 in PBS (100 μg/mL) was diluted to 25 μg/mL with 10 mM sodium acetate buffer (pH 4.5) and immobilized to CM5 sensor chips using the amine coupling reaction according to manufacturer-provided procedures (BIACore). Briefly, the surfaces of the chips in flow cells (FC)-1 and FC-2 were activated by exposing chips to a mixture of 200 mM N-ethyl-N′-dimethylaminopropyl carbodiimide and 50 mM N-hydroxysuccinimide for 7 min. FC-1 was used as a reference surface and was directly deactivated by injecting 1 M ethanolamine at pH 8.5 for 7 min. FC-2 was injected with 25 μg/mL human or murine EphB4 followed by injection of 1 M ethanolamine to block the remaining activated ester groups on the surface. The chips were allowed to stabilize for at least 2 h in HBSEP running buffer before injection of test analytes.
Binding assays were performed in duplicate at 25° C. in HBSEP running buffer. […] Thus, all analyzed samples, including a sample of the running buffer, were additionally injected onto an uncoated reference surface. The association rate (Kon) and dissociation rate (Kog) were calculated by fitting binding chromatogram data using the BIACore evaluation software with a 1:1 Langmuir binding model. The binding constant KD was calculated as Koff/Kon. […]

## CCPM-BIDEN-AP: nano-conjugate of Cys-BIDEN-AP on core-crosslinked polymeric micelles via maleimide (GMBS) (CTNYLFSPNGPIARAW; D-residues)
  binding affinity to EphB4 (in words): retained the binding affinity to EphB4
